Patent US20050266242A1 (WHITEHEAD INSTITUTE FOR BIOMEDICAL RESEARCH, published 2005)

B1: NM^K184C (NM in which the lysine residue at position 184 was substituted by cysteine) (other)
chain: MSDSNQGNNQQNYQQYSQNGNQQQGNNRYQGYQAYNAQAQPAGGYYQNYQGYSGYQQGGYQQYNPDAGYQQQYNPQGGYQQYNPQGGYQQQFNPQGGRGNYKNFNYNNNLQGYQAGFQPQSQGMSLNDFQKQQKQAAPKPKKTLKLVSSSGIKLANATKKVGTKPAESDKKEEEKSAETKEPTCEPTKVEEPVKKEEKPVQTEEKTEEKSELPKVEDLKISESTHNTNNANVTSADALIKEQEEEVDDEVVND
notes: also called K184C sonicated fibers; short NM^K184C fibrils
B2: Rnq1, purified recombinant protein (other)
chain: MDTDKLISEAESHFSQGNHAEAVAKLTSAAQSNPNDEQMSTIESLIQKIAGYVMDNRSGGSDASQDRAAGGGSSFMNTLMADSKGSSQTQLGKLALLATVMTHSSNKGSSNRGFDVGTVMSMLSGSGGGSQSMGASGLAALASQFFKSGNNSQGQGQGQGQGQGQGQGQGQGSFTALASLASSFMNSNNNNQQGQNQSSGGSSFGALASMASSFMHSNNNQNSNNSQQGYNQSYQNGNQNSQGYNNQQYQGGNGGYQQQQGQSGGAFSSLASMAQSYLGGGQTQSNQQQYNQQGQNNQQQYQQQGQNYQHQQQGQQQQQGHSSSFSALASMASSYLGNNSNSNSSYGGQQQANEYGRPQHNGQQQSNEYGRPQYGGNQNSNGQHESFNFSGNFSQQNNNGNQNRY

Key:
[1] = target: the molecule itself; test: seeded fiber assembly
[2] = target: the molecule itself; test: seeded polymerization of purified Rnq1, Thioflavin T fluorescence

| Protein | binding result [1] | binding result [2] |
| --- | --- | --- |
| B1 | binds | – |
| B2 | – | binds |
